The values below are quoted from earlier work in patent US20160199463A1, “HDAC2 DEFENDS VASCULAR ENDOTHELIUM FROM INJURY” (The Johns Hopkins University, priority 2014, published 2016).

The series deals with T1, HDAC8 (Homo sapiens, UniProt Q9BY41).
T1 sequence (Q9BY41 1-377): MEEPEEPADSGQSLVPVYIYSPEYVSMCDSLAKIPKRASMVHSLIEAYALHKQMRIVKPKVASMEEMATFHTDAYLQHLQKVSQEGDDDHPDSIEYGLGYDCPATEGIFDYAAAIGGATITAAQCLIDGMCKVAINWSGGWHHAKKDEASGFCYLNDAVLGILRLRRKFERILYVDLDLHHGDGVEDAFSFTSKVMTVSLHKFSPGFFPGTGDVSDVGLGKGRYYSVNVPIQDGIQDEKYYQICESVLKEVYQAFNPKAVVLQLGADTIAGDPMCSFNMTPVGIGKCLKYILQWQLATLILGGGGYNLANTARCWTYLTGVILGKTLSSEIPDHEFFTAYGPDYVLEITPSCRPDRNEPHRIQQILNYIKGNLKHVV
Conditions: cited from earlier work.

For `CC(/C=C/C(=O)NO)=C\[C@@H](C)C(=O)c1ccc(N(C)C)cc1` [TSA, trichostatin A], the “block of HDAC8” value is “do not block”.
